The subject of one test is CVB5 (strain Faulkner). The test can be described thus: CPE assay. In kind it is cell-based, Coxsackie virus B.
The test system of another test is CVB6 (strain Schmitt). As to the kind of experiment: CPE assay. The class given is cell-based, Coxsackie virus B.
Another test has as its system CVB1 (strain Conn-5). The test can be described thus: CPE assay. The class given is cell-based, Coxsackie virus B.
The next test relates to CVB3 (strain Nancy). As to the kind of experiment: CPE assay. The class given is cell-based, Coxsackie virus B.
For a further test, the system named is BY/fujianxinluo/54/2006. As to the kind of experiment: CPE assay in MDCK cells. The class given is cell-based, influenza B virus.
Another test concerns A/wuhan/359/1995. As to the kind of experiment: CPE assay in MDCK cells. In kind it is cell-based, Influenza A virus (H3N2).
The test system of another test is CVB4 (strain J.V.B.). The test can be described thus: CPE assay. In kind it is cell-based, Coxsackie virus B.
A further test deals with A/FortMonmouth/1/1947. The test can be described thus: CPE assay in MDCK cells. The class given is cell-based, Influenza A virus (H1N1).
The next test has as its system BV/shenzhen/155/2005. As to the kind of experiment: CPE assay in MDCK cells. In kind it is cell-based, influenza B virus.
The test system of another test is CVB2 (strain Ohio-1). The test can be described thus: CPE assay. The class given is cell-based, Coxsackie virus B.

`NC(=O)c1ncn([C@@H]2O[C@H](CO)[C@@H](O)[C@H]2O)n1` [RBV, Ribavirin]: the SI in the test on CVB5 (strain Faulkner) is given as >16.67; in the test with CVB6 (strain Schmitt) it was >4.39; with CVB1 (strain Conn-5), >8.44; in the test with CVB3 (strain Nancy) it was >6.39; in the test on BY/fujianxinluo/54/2006 it was >80.65; with A/wuhan/359/1995, >24.30. The SI in the test on CVB4 (strain J.V.B.) is >8.10; in the test on A/FortMonmouth/1/1947, >121.95; in the test on BV/shenzhen/155/2005, >117.65; with CVB2 (strain Ohio-1), >8.81.
